{"sequences": {"note": "Protein sequences, listed by entry. Tags and fused reporters are not part of them.", "UniProt P28566, whole entry": "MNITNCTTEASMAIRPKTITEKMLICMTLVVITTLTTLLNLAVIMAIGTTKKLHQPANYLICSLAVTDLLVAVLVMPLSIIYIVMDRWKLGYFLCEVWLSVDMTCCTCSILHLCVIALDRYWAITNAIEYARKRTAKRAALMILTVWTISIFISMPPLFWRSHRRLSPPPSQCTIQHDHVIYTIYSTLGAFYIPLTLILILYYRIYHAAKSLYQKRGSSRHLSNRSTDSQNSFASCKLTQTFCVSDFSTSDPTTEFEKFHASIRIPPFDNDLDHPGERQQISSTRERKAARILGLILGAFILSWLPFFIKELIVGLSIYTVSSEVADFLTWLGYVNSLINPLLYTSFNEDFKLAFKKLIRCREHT"}, "source": "PubChem BioAssay AID574", "about": "(The Scripps Research Institute Molecular Screening Center, 2007)", "note": "This is a selection; strong and weak results do not stand in their true shares. The source made the active and inactive calls.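 How the source made its calls: active means activation above a set limit, the screen-wide mean activation plus 3 SD (cut at about 8.5% in these data); inactive means the rest.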"}
{"molecular_target": "5-hydroxytryptamine receptor 1E (Homo sapiens) (UniProt P28566)", "assay": "activation of human serotonin 5HT1E receptor – cell-based, HTS, primary screen (AID 574);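 further: 100% = positive control agonist at 1 µM giving full maximal response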", "conditions": "CHO 5-HT1E Ga15 NFAT-bla reporter, FRET; at 6 µM; hits give high values; 0% DMSO wells, 100% control agonist wells"}
{"compound": "CP(=O)(Nc1ccc2c(c1)OCCO2)Oc1ccccc1", "note": "(stereo not drawn)", "activation": "inactive: 0.6%"}
{"compound": "Cc1ccccc1NP(C)(=O)Nc1ccccc1C", "activation": "inactive: -0.3%"}
{"compound": "CCOP(C)(=S)SCC(=O)NC(C)(CC)C(=O)O", "note": "(stereo not drawn)", "activation": "inactive: -0.6%"}
{"compound": "CN(C)CCOC(=O)C(O)(c1ccccc1)C1CCCCC1", "note": "(stereo not drawn)", "activation": "inactive: -0.1%"}
{"compound": "CP(=O)(Nc1ccccc1F)Oc1ccccc1", "note": "(stereo not drawn)", "activation": "inactive: -1.2%"}
{"compound": "CP(=O)(Nc1ccccn1)Oc1ccccc1", "note": "(stereo not drawn)", "activation": "inactive: -0.6%"}
{"compound": "Cc1nc2ccc3ccccc3c2o1.O=[N+]([O-])c1cc([N+](=O)[O-])c(O)c([N+](=O)[O-])c1", "activation": "inactive: -0.1%"}
{"compound": "COc1ccccc1OP(C)(=O)Nc1ccc(C)c(C)c1", "note": "(stereo not drawn)", "activation": "inactive: 3%"}
{"compound": "CCN(CC)CC(O)COC(=O)C(O)(c1ccccc1)C1CCCCC1", "note": "(stereo not drawn)", "activation": "inactive: 0%"}
{"compound": "CP(=O)(Oc1ccccc1)N1CCOC1=O", "note": "(stereo not drawn)", "activation": "inactive: -0.4%"}
{"compound": "COc1ccccc1OP(C)(=O)Nc1c(C)n(C)n(-c2ccccc2)c1=O", "note": "(stereo not drawn)", "activation": "inactive: -0.8%"}
{"compound": "CCOP(C)(=S)SCC(=O)NC(C)C(=O)O", "note": "(stereo not drawn)", "activation": "inactive: 0.7%"}
{"compound": "CP(=O)(NC(=O)Nc1ccccc1)Oc1ccccc1", "note": "(stereo not drawn)", "activation": "inactive: -0.9%"}
{"compound": "CP(=S)(Nn1cnnc1)Oc1ccccc1", "note": "(stereo not drawn)", "activation": "inactive: 0.3%"}
{"compound": "COc1ccccc1OP(C)(=O)Nc1ccc(C)cc1", "note": "(stereo not drawn)", "activation": "inactive: 0%"}
{"compound": "Cc1ccc(NP(C)(=O)Oc2ccccc2)c(C)c1", "note": "(stereo not drawn)", "activation": "inactive: -0.3%"}
{"compound": "Cc1ccc(C)c(NP(C)(=O)Oc2ccccc2)c1", "note": "(stereo not drawn)", "activation": "inactive: 0.6%"}
{"compound": "Cc1nc2ccc3ccccc3c2s1.O=[N+]([O-])c1cc([N+](=O)[O-])c(O)c([N+](=O)[O-])c1", "activation": "inactive: -0.3%"}
